Values quoted from earlier work, collected in PMC4105021 (ChemMedChem, 2014).

Biological target: T1, human TLR8 (Homo sapiens, UniProt Q9NR97)
T1 sequence (Q9NR97 27-1041): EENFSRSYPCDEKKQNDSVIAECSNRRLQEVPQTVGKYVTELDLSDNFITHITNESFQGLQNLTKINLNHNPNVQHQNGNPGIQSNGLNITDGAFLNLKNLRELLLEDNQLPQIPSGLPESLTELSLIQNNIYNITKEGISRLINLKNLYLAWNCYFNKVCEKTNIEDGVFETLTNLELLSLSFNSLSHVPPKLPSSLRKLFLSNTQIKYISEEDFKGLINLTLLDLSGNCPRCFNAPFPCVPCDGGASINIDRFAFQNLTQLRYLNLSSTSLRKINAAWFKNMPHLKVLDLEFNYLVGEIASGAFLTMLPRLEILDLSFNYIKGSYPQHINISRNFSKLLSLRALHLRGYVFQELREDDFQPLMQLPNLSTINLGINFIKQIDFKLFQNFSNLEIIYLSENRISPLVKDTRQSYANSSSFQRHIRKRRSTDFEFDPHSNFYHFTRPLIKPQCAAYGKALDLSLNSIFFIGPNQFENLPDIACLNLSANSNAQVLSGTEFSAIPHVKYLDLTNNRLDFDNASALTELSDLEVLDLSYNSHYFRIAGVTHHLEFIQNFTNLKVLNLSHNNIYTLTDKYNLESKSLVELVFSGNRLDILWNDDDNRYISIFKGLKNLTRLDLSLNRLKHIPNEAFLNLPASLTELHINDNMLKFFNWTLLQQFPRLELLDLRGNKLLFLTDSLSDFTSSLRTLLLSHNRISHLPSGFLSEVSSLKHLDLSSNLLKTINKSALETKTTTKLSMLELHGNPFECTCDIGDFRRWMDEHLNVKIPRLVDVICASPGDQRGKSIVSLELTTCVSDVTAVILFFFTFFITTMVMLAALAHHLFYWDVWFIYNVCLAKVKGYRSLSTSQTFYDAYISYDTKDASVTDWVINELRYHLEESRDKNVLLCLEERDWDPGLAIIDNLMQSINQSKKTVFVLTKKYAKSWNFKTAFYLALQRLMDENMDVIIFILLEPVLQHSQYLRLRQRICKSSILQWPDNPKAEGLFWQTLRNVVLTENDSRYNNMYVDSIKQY
Conditions: IL-12 and IL-18 induction, without IFN-α inducing properties; ref 8a; cited from earlier work

SMILES: CCCCc1cc2c(o1)c(N)nc1ccccc12 [Compound 3, 2-butylfuro[2,3-c]quinolin-4-amine]
- TLR8 agonistic activity profile: pure TLR8 agonistic activity
